# scFv variants of Ab-95 (light chain) against a SARS-CoV-2 spike peptide

Target peptide (SARS-CoV-2 spike, HR2 region): PDVDLGDISGINAS

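The parent was found by panning a naive human phage display library on the peptide. In library AAYL52, one, two or three CDR residues were substituted; doubles and triples were drawn at random. The assay is AlphaSeq: two haploid yeast populations carry antibody and antigen on their surface. The frequency of each diploid, read from paired DNA barcodes, reflects how well the two displayed proteins bind. Scores were corrected for input abundance and mapped to Kd with protein pairs of known affinity run in the same pool. There are three technical replicates.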

Parent: Ab-95, a human scFv built as VH, a 15-residue (Gly4Ser)3 linker, VL. Only the CDRs of the light chain vary.
VH: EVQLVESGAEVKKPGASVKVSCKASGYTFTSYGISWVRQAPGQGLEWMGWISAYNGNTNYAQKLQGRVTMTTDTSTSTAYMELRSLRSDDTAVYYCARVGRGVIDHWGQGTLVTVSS
VL: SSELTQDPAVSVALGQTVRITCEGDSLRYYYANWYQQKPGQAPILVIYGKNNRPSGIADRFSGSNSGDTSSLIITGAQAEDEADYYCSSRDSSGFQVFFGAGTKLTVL

Positions count from residue 1 of the parent VL; P54V puts V in place of P.
This list gathers variants with a substitution at S88 (VL, numbered from residue 1).
The Kd shown is the geometric mean over detected replicates; a lower Kd is a better binder.
"nd" means that the variant was in the library but no mating with the target was seen in any replicate; the authors take this as a sign of poor binding, and no number exists.

- P54V S88K S93T = 7.3 µM (1 of 3 replicates; controls 2 of 9)
- S88Q D91M S92N = 740 nM (3 of 3 replicates; controls 0 of 9)
- L27I S88P F95G = 3.6 µM (3 of 3 replicates; controls 0 of 9)
- Y31H S55W S88N = 340 nM (3 of 3 replicates; controls 1 of 9)
- A32H S88K = 1.9 µM (3 of 3 replicates; controls 4 of 9)
- G49K S88M S92H = 20 µM (2 of 3 replicates; controls 2 of 9)
- Y31H S88G = 45 nM (3 of 3 replicates; controls 1 of 9)
- Y29K S88M D91P = 160 nM (3 of 3 replicates; controls 5 of 9)
- E23Q S88I = 540 nM (3 of 3 replicates; controls 5 of 9)
- S88K D91M G94D = 260 nM (3 of 3 replicates; controls 1 of 9)
- E23T Y31F S88I = 290 nM (3 of 3 replicates; controls 5 of 9)
- S88H S93E Q96W = 59 nM (3 of 3 replicates; controls 3 of 9)
- S88F F95K = 350 nM (2 of 3 replicates; controls 3 of 9)
- S88N S89Y = 160 nM (3 of 3 replicates; controls 0 of 9)
- E23H S88C = 990 nM (3 of 3 replicates; controls 1 of 9)
- Y31V S88L F95M = 2.0 µM (3 of 3 replicates; controls 4 of 9)
- S88P D91A F98G = 9.5 µM (1 of 3 replicates; controls 1 of 9)
- Y31V S88D F98S = 1.3 µM (3 of 3 replicates; controls 3 of 9)
- Y30W S88R D91F = 12 µM (2 of 3 replicates; controls 4 of 9)
- S55R S88E F98E = 9.7 µM (2 of 3 replicates; controls 3 of 9)
- N52D P54S S88Q = 1.3 µM (3 of 3 replicates; controls 2 of 9)
- G24V S88C = 19 µM (3 of 3 replicates; controls 1 of 9)
- S88M S89I G94H = 130 nM (3 of 3 replicates; controls 3 of 9)
- N51S S88W Q96M = nd (0 of 3 replicates; controls 1 of 9)
- A32L P54T S88G = nd (0 of 3 replicates; controls 1 of 9)
- S88L D91H = 260 nM (3 of 3 replicates; controls 2 of 9)
- D25I S88A S89I = 370 nM (3 of 3 replicates; controls 3 of 9)
- N51H S55E S88I = 1.6 µM (1 of 3 replicates; controls 1 of 9)
- Y30N R53S S88V = 130 nM (3 of 3 replicates; controls 1 of 9)
- R28G G49W S88T = 8.1 µM (1 of 3 replicates; controls 1 of 9)
- A32E S88Q F98W = 71 µM (1 of 3 replicates; controls 1 of 9)
- D25F Y30W S88W = 1.2 µM (3 of 3 replicates; controls 5 of 9)
- S55D S88R S92L = 4.6 µM (2 of 3 replicates; controls 2 of 9)
- S88I R90K F95M = 4.7 µM (1 of 3 replicates; controls 3 of 9)
- R28H S88V R90E = 250 nM (3 of 3 replicates; controls 2 of 9)
- N33E N51G S88Q = nd (0 of 3 replicates; controls 1 of 9)
- R28N S88P G94D = 160 µM (1 of 3 replicates; controls 2 of 9)
- A32W S88V F98D = 69 µM (2 of 3 replicates; controls 3 of 9)
- L27H Y31A S88V = 18 µM (1 of 3 replicates; controls 3 of 9)
- S55L S88R F98G = 4.8 µM (2 of 3 replicates; controls 0 of 9)
- N51R N52L S88W = 5.9 µM (3 of 3 replicates; controls 1 of 9)
- D25H A32Y S88K = nd (0 of 3 replicates; controls 4 of 9)
- P54D S88P F95L = 590 nM (3 of 3 replicates; controls 3 of 9)
- G49F S88G S89W = 46 µM (2 of 3 replicates; controls 1 of 9)
- K50R S88Q S93I = 160 nM (3 of 3 replicates; controls 3 of 9)
- S55M S88K D91F = nd (0 of 3 replicates; controls 1 of 9)
- N52R S88P = 5.6 µM (3 of 3 replicates; controls 6 of 9)
- S55H S88K F98L = 3.7 µM (2 of 3 replicates; controls 1 of 9)
- N33K S88Q S93I = 270 µM (1 of 3 replicates; controls 3 of 9)
- K50A S88D G94Q = 490 nM (3 of 3 replicates; controls 0 of 9)

Top 3 of the variants detected in all replicates, tightest first:

changes,Kd (apparent),seen in,signal with controls
Y31H S88G,45 nM,3/3,1/9
S88H S93E Q96W,59 nM,3/3,3/9
Y30N R53S S88V,130 nM,3/3,1/9

In this assay the parent's reference entry averaged 200 nM; its copy inside this library read 180 nM.
Three control strains display no target. For library AAYL52, 28% of the pairings with them gave a signal, with a median of 8.2 µM and one signal in twenty below 800 nM, so weak values seen in few replicates may be background. For each scFv, signals with the empty controls are counted beside the result.

Reference: Engelhart et al. 2022, doi:10.1038/s41597-022-01779-4. File: FLAb, binding data.